Literature values as cited in article PMC9769694, “Discovery of Two Inhibitors of the Type IV Pilus Assembly ATPase PilB as Potential Antivirulence Compounds” (Microbiology Spectrum, 2022).

The chains behind the UniProt entries cited, without tags or fusion partners.
UniProt G2LDI3, entry or part of it: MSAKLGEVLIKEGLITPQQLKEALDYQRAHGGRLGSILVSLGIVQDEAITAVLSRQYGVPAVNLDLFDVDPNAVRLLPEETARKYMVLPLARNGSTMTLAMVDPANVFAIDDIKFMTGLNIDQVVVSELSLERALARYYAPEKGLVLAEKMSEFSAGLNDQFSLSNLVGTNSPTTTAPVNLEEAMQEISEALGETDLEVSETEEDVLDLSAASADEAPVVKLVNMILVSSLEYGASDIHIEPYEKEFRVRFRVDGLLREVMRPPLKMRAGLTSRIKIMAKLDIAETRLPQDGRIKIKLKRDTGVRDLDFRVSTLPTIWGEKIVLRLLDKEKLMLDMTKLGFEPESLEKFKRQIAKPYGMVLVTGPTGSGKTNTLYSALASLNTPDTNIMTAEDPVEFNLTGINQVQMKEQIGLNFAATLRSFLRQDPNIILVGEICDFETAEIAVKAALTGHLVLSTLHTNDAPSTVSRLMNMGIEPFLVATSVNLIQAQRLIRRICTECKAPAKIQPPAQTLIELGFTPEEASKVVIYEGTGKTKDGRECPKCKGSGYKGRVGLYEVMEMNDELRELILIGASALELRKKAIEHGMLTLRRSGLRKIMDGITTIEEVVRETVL

Molecular target: CtPilB (Chloracidobacterium thermophilum, UniProt G2LDI3)
Details: read-out: IC50 from effect on MANT-ATP binding; cited from earlier work

Structure (SMILES): O=c1c(O)c(-c2ccc(O)c(O)c2)oc2cc(O)cc(O)c12 [quercetin]
- IC50: 2.1 µM
